Reference: patent publication US10124022B2, “Compositions and methods for enhancing the effectiveness of systemic, HIPEC, IP, and related cancer treatments” (ChemoTherapeutics, LLC, priority 2010, dated 2018)

System: HCT-116 cells
Test: MTS cell viability assay, drugs ± one-hour hyperthermia, cytotoxicity measured after three days (Studies 1-6);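 further: Drug-treated HCT-116 cells held one hour at 42 °C (hyperthermia) or 37 °C, then cultured at 37 °C, viability read by MTS in triplicate wells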
Conditions: 20 μM Selenite, 150 μM Quercetin as named

Structure (SMILES)	% cell survival (Study 3, 2.5 μM Cisplatin, alone or with 1.25 mM Vitamin C, 37° C.) [%]	% cell survival (Study 3, 2.5 μM Cisplatin, alone or with 1.25 mM Vitamin C, 42° C. 1 hr) [%]	% cell survival (Study 3, 10 μM Cisplatin, alone or with 1.25 mM Vitamin C, 37° C.) [%]	% cell survival (Study 3, 10 μM Cisplatin, alone or with 1.25 mM Vitamin C, 42° C. 1 hr) [%]	% cell survival (Study 3, no chemotherapeutic, 1.25 mM Vitamin C, 37° C.) [%]	% cell survival (Study 3, no chemotherapeutic, 1.25 mM Vitamin C, 42° C. 1 hr) [%]
N.N.[Cl][Pt][Cl] [Cisplatin, reference compound]	95.2	82.7	41.2	29.9	–	–
O=c1c(O)c(-c2ccc(O)c(O)c2)oc2cc(O)cc(O)c12 [Quercetin]	–	–	–	–	128	107
